This is an account of results in US20260382567A1, “COMBINATION OF QUERCETIN AND PATHENOLIDE AS ANTI-INFLAMMATORY AGENTS FOR USE IN THE TREATMENT OF DERMATITIS” (published 2026).

Assay [1] deals with TNFa secretion by human THP-1 macrophages. Description: THP1 cytokine secretion assay (IFN-gamma/LPS-stimulated, PMA-differentiated THP-1 macrophages), secreted TNFa.
Assay [2] has as its system TNFa. Description: LPS-induced systemic inflammation mouse model, TNFa level. Conditions: at 4 h after LPS (1 mg/kg); i.p. 1 hour prior; Dexamethasone 5 mg/kg; Parthenolide+Quercetin 4 mg/kg+9 mg/kg; serum or plasma.
In assay [3] the test system is CXCL1. Description: LPS-induced systemic inflammation mouse model, CXCL1 level. Conditions: at 4 h after LPS (1 mg/kg); i.p. 1 hour prior; Dexamethasone 5 mg/kg; Parthenolide+Quercetin 4 mg/kg+9 mg/kg; serum or plasma.
Assay [4] relates to MIP1-beta. As to the kind of experiment: LPS-induced systemic inflammation mouse model, MIP1-beta level. Conditions: at 4 h after LPS (1 mg/kg); i.p. 1 hour prior; Dexamethasone 5 mg/kg; Parthenolide+Quercetin 4 mg/kg+9 mg/kg; serum or plasma.

The structures appear in SMILES notation.

Regarding `O=c1c(O)c(-c2ccc(O)c(O)c2)oc2cc(O)cc(O)c12`, the “inhibition of TNFa secretion (in words)” value in assay [1] (Quercetin alone (0-10 uM)) was “dose-dependent inhibition of TNFa secretion”.
`C[C@@H]1C[C@H]2[C@@H]3CCC4=CC(=O)C=C[C@]4(C)[C@@]3(F)[C@@H](O)C[C@]2(C)[C@@]1(O)C(=O)CO`: the TNFa level in assay [2] is recorded as 12 % of the Vehicle in LPS-injected mice. Further, the CXCL1 level in assay [3] is 57 % of the Vehicle in LPS-injected mice. Further, in assay [4], the MIP1-beta level is 29 % of the Vehicle in LPS-injected mice.
For the compound `C=C1C(=O)O[C@H]2[C@H]1CC/C(C)=C/CC[C@@]1(C)O[C@@H]21`, the “inhibition of TNFa secretion (in words)” value in assay [1] (Parthenolide alone (0-5 uM)) was “dose-dependent inhibition of TNFa secretion”.
